Measured affinities in a library of Ab-95 light chain variants

All variants were tested on one target, the spike HR2 peptide PDVDLGDISGINAS (SARS-CoV-2).

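AAYL52 was designed without a model: most single CDR substitutions and a random sample of double and triple ones. The scFvs were displayed on barcoded MATa yeast, the peptide on MATalpha yeast. Mating (16 h, 30 °C) was followed by selection of diploids and sequencing of their barcodes. Read counts were normalised to the haploid input and turned into Kd by a linear fit to BCL2-family pairs of known affinity, for each replicate. The assay was run in three technical replicates.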

Each scFv is VH, a (GGGGS)3 linker, VL, as in the parent Ab-95, and differs from it in the CDRs of the light chain only.
VH: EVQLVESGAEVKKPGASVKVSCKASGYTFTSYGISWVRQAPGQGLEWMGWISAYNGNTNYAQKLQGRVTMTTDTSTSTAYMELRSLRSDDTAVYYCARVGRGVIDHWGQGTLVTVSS
VL: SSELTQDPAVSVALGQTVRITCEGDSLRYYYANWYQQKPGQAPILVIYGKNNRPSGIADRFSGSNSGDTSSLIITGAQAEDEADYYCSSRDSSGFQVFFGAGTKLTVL

The parent's light chain CDRs are EGDSLRYYYAN, GKNNRPS, SSRDSSGFQVF; each variant's own CDRs replace them letter for letter.
Numbers give log10(Kd / nM), so 0 is 1 nM and 3 is 1 µM. Smaller is tighter.
A mean of the replicates is given; it leaves out those without a signal.
A pair that was not seen in that replicate is written "n.d."; this usually means weak binding, but a binder can also be missed.
For reference, the parent read 2.31 as the reference entry and 2.25 as a member of this library.
Background: pairings of library AAYL52 with three empty control strains gave a value in 28% of cases (median 3.91, 5th percentile 2.90). Values in that range, when seen in few replicates, are hard to tell from nonspecific mating. The control count says in how many pairings with the empty strains this scFv gave a signal, with their mean in brackets.

CDR-L1	CDR-L2	CDR-L3	log10 Kd, replicates	mean log10 Kd (nM)	control signals
EGDSLRYYYAN	GKNNRIS	SSYDSSGRQVF	3.39 3.02 n.d.	3.20	4 of 9 (4.25)
QGDSLRYYYAN	GKNNRAS	SSRDSSGFQKF	1.97 2.19 1.81	1.99	5 of 9 (4.20)
EADSLRYYYAN	GKNNRPS	SSSDSSGFQKF	3.58 n.d. n.d.	3.58	2 of 9 (3.94)
HGDSLRYYYAN	GKNNRPS	SSGDMSGFQVF	3.27 n.d. n.d.	3.27	4 of 9 (4.01)
EGLSLRYYYAN	GKNNRPS	SSRDSAGFEVF	n.d. n.d. n.d.	n.d.	0 of 9
EGDSLRLYYAN	FKNNRPS	SSRDSSGFQVF	3.88 n.d. 4.66	4.27	3 of 9 (3.67)
EGDSLRYYYAN	GKNNRPS	SGRFHSGFQVF	3.36 2.71 2.44	2.84	5 of 9 (4.24)
EGDSLRYYYAN	GKPNRPS	SSRDSSGYQVL	n.d. n.d. n.d.	n.d.	1 of 9 (2.56)
EGDSDAYYEAN	GKNNRPS	SSRDSSGFQVF	3.20 2.91 2.87	2.99	5 of 9 (4.16)
EGDSLRYYAAN	WKNNRPS	SSRDSSGFQVF	2.69 n.d. 2.74	2.71	0 of 9
EGDSLRYYYAN	GKNNRYS	SSRTSSKFQVF	2.66 3.39 3.97	3.34	4 of 9 (3.93)
EGDSLHYYYAN	GKNNGPS	STRDSSGFQVF	n.d. n.d. n.d.	n.d.	0 of 9
SGDSPRYYYAN	GKNNRPS	SSRDASGFQVF	n.d. 2.72 4.22	3.47	1 of 9 (4.62)
EGDELRYWYAN	GKNNRPS	SFRDSSGFQVF	5.16 n.d. n.d.	5.16	4 of 9 (3.74)
ESDSLRYYYAN	GDNNRPS	SDRDSSGFQVF	2.74 3.20 2.94	2.96	3 of 9 (4.51)
EGDSLRLYCAN	GKNWRPS	SSRDSSGFQVF	3.86 2.81 n.d.	3.33	2 of 9 (4.27)
EGDSLRYYYAN	GKNNRPL	GSEDSSGFQVF	n.d. n.d. n.d.	n.d.	0 of 9
ETDSLRYYYAN	GKMNRPS	SSRDSSRFQVF	3.57 n.d. n.d.	3.57	1 of 9 (4.58)
EGDSLRYYYAN	GKNNLPS	ASRKSSGFQVF	n.d. 4.34 3.76	4.05	2 of 9 (3.67)
EGFSLRYYYAN	GKNNRPS	SSRDSSGFQGF	2.46 2.48 2.60	2.51	4 of 9 (3.76)
EWDSARYYYAN	GKNNGPS	SSRDSSGFQVF	4.69 5.32 n.d.	5.01	4 of 9 (3.97)
EGDSLRYYYAN	GKKTRPS	SSRDSSGFQVF	3.46 3.02 3.07	3.18	4 of 9 (3.60)
EGDSLRYYYAR	GTNNRPS	SSRHSSGFQVF	n.d. 4.38 3.37	3.88	1 of 9 (4.22)
EGDSLRTYYAN	GKNNRPS	SSRHSSGFQVF	2.60 2.84 2.60	2.68	4 of 9 (3.59)
EGDSLRCYYHN	GKNNRPS	SSRDSSGFQVW	3.70 4.23 4.16	4.03	4 of 9 (4.25)
GGASLRYYYAN	GKNNRPS	SSRMSSGFQVF	2.29 1.73 1.49	1.84	6 of 9 (4.48)
EGDSLRYYYAN	GKRPRPS	SSRDSSGFQVF	n.d. 5.07 n.d.	5.07	2 of 9 (3.70)
EGDSLRYYYAH	GKHNRPE	SSRDSSGFQVF	n.d. 4.55 n.d.	4.55	1 of 9 (3.41)
EGQSLRYYYAN	GKNQRPS	SSRDSSGFEVF	n.d. n.d. n.d.	n.d.	0 of 9
EPDSLRYYYAN	GKNNRPL	SSMDSSGFQVF	5.33 n.d. 4.61	4.97	2 of 9 (5.16)
EGDDLRYYYAN	GKNNRPS	SSRDSSGKQSF	2.50 3.12 2.42	2.68	2 of 9 (3.84)
AGDSLNYYYAN	GKNNRPS	SSRDSSGFQVC	2.35 2.11 2.30	2.25	5 of 9 (3.96)
EWDSLRYYYAN	GKNNRPS	LSRDSSGRQVF	n.d. n.d. 2.93	2.93	5 of 9 (4.22)
EGDSLRYYDAF	GKNQRPS	SSRDSSGFQVF	3.13 3.27 4.42	3.61	6 of 9 (3.76)
EGDWLRYYYAW	GKNNRPS	SSQDSSGFQVF	4.51 4.62 n.d.	4.57	1 of 9 (2.88)
EADSLRYRYAN	GKNNRPS	SSRDNSGFQVF	2.19 1.77 1.14	1.70	3 of 9 (4.66)
EGDSLRYSYAN	GKNNRPS	SSRDSSGFQVG	1.44 1.34 0.93	1.23	5 of 9 (4.29)
EGDSPRYYYAN	GKNNRPS	SSRDSSGFQTF	3.69 n.d. n.d.	3.69	1 of 9 (3.53)
EGDSLRYYYAN	GKWNRPS	SSRDQSGNQVF	3.46 4.06 n.d.	3.76	1 of 9 (3.48)
EGDSLRYYYAN	GAPNRPS	SSRDSSGFQVD	3.34 2.70 2.76	2.93	0 of 9
EGMSLRWYYAN	GKNNRPS	SSRDMSGFQVF	3.47 n.d. n.d.	3.47	1 of 9 (3.84)
EGDSLRYYYAN	GKNHRPY	SSVDSSGFQVF	3.96 3.81 3.03	3.60	4 of 9 (4.20)
ENDSLRYYNAN	IKNNRPS	SSRDSSGFQVF	4.67 n.d. n.d.	4.67	3 of 9 (4.05)
EGDSLSYYYAN	GKHNRPS	VSRDSSGFQVF	4.29 n.d. 3.76	4.02	4 of 9 (4.32)
EGDSLCYYYAE	GKNNRPS	SSRDSSGRQVF	2.94 3.06 3.49	3.16	6 of 9 (4.53)
ELDSLRYKYAN	GKNNRPS	SSRDSSIFQVF	3.14 n.d. n.d.	3.14	2 of 9 (3.65)
EGDSLRYYYAN	GKNNEPS	SSRDSSGFYVF	n.d. 5.28 n.d.	5.28	3 of 9 (3.69)

Excerpt, the first 8 entries:

CDR-L1	CDR-L2	CDR-L3	log10 Kd, replicates	mean log10 Kd (nM)	control signals
EGDSLRYYYAN	GKNNRIS	SSYDSSGRQVF	3.39 3.02 n.d.	3.20	4 of 9 (4.25)
QGDSLRYYYAN	GKNNRAS	SSRDSSGFQKF	1.97 2.19 1.81	1.99	5 of 9 (4.20)
EADSLRYYYAN	GKNNRPS	SSSDSSGFQKF	3.58 n.d. n.d.	3.58	2 of 9 (3.94)
HGDSLRYYYAN	GKNNRPS	SSGDMSGFQVF	3.27 n.d. n.d.	3.27	4 of 9 (4.01)
EGLSLRYYYAN	GKNNRPS	SSRDSAGFEVF	n.d. n.d. n.d.	n.d.	0 of 9
EGDSLRLYYAN	FKNNRPS	SSRDSSGFQVF	3.88 n.d. 4.66	4.27	3 of 9 (3.67)
EGDSLRYYYAN	GKNNRPS	SGRFHSGFQVF	3.36 2.71 2.44	2.84	5 of 9 (4.24)
EGDSLRYYYAN	GKPNRPS	SSRDSSGYQVL	n.d. n.d. n.d.	n.d.	1 of 9 (2.56)

Source: Engelhart et al. 2022 (doi:10.1038/s41597-022-01779-4), MIT Lincoln Laboratory and A-Alpha Bio; data file from the FLAb repository.